Data taken from EP0354046A2, “Herbicidal method using bromoxynil” (MAY & BAKER LIMITED, priority 1988, dated 1990).
Where “and” joins values, the source holds several entries; their conditions need not be identical. Equal values may be shown once.

Tests used:
Echinochloa crus-galli = assay: Glasshouse experiment 2, percentage phytotoxicity after 19 days; format: in vivo; settings: bromoxynil alone 35,70,140 g a.e./ha (r3-r5), 3 leaf growth stage
Method: Agricultural surfactant-nonylphenol ethylene oxide condensate containing 9 moles ethylene oxide was added to all spray dilutions to give 0.2% v/v concentration.
After spraying, the pots were arranged in randomised blocks in a glasshouse, watered as necessary, and assessed after 19 days for percentage phytotoxicity (reduction in green area compared with unsprayed plants) (0 = no effect; 100 = complete destruction).
The results were then used to plot an isobole with a "one-sided effect" according to the methods of P.M.L. Tammes op.cit.

maize var. Irla = assay: Glasshouse experiment 4, percentage phytotoxicity on crop after 11 days; settings: for % crop phytotoxicity Maize (3-4 leaves): Compound (74 or 99) 0 g/ha
Method: Agricultural surfactant ('Agral') was added to the spray dilutions to give 0.2%v/v concentration.
After spraying the pots were arranged in randomised blocks in a glasshouse and water as necessary. After 11 days the plants were assessed for percentage phytotoxicity (reduction in green area compared with unsprayed plants (0 = no effect 100 = complete destruction).
E = X + Y […] where E, X and Y are percentage phytotoxicity.
The ED values were then used to plot an isobole for each mixture according to the method of P.M.L. Tammes op cit.

## N#Cc1cc(Br)c(O)c(Br)c1 [Bromoxynil, 3,5-dibromo-4-hydroxybenzonitrile]
Echinochloa crus-galli
  percentage phytotoxicity: 0
Maize var. Irla; Bromoxynil 70 g/ha
  % crop phytotoxicity Maize (3-4 leaves): 0%
Maize var. Irla; Bromoxynil 140 g/ha
  % crop phytotoxicity Maize (3-4 leaves): 0%
Maize var. Irla; Bromoxynil 280 g/ha
  % crop phytotoxicity Maize (3-4 leaves): 0% and 1%
Maize var. Irla; applied alone
  ED₂₀ crop phytotoxicity Maize (3-4 leaves): ED₂₀(g/ha) >280
